CycPeptMPDB entries from one study

Source: CycPeptMPDB (Li et al. 2023), which took these values from Townsend et al. 2020, doi:10.26434/chemrxiv.13335941.v1.

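Conditions beyond the assay type are not listed; see the original paper. The list need not hold all peptides of the study. Peptides that the database sets to -10, its floor, are left out.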

PAMPA measures passive passage through an artificial lipid membrane.
Permeability is in 10^-6 cm/s, converted from the database's log10 values; higher is more permeable.

structure (SMILES) | PAMPA (10^-6 cm/s)
CCCN1CC(=O)N(C)[C@@H](CC(C)C)C(=O)N(Cc2ccccc2)CC(=O)N2CCC[C@@H]2C(=O)N(C)[C@@H](CC(C)C)C(=O)N[C@@H](Cc2ccccc2)C(=O)N2CCC[C@H]2C1=O | 6.2
CC(C)C[C@@H]1NC(=O)[C@H](CC(C)C)N(C)C(=O)[C@H](C)NC(=O)[C@H](Cc2ccccc2)NC(=O)[C@@H](CC(C)C)NC(=O)[C@@H]2CCCN2C1=O | 0.76
CC(C)C[C@@H]1NC(=O)[C@@H](CC(C)C)N(C)C(=O)[C@H](C)NC(=O)[C@H](Cc2ccccc2)NC(=O)CN(Cc2ccccc2)C(=O)[C@H]2CCCN2C1=O | 8.1
CC(C)C[C@@H]1NC(=O)[C@H](CC(C)C)N(C)C(=O)C[C@H](Cc2ccccc2)NC(=O)[C@@H]2CCCN2C(=O)[C@H](Cc2ccccc2)NC(=O)[C@H](CC(C)C)N(C)C(=O)[C@@H]2CCCN2C1=O | 1.8
CC(C)C[C@@H]1C(=O)N[C@H](CC(C)C)C(=O)N2CCC[C@H]2C(=O)N(Cc2ccccc2)CC(=O)N[C@@H](Cc2ccccc2)C(=O)N(C)[C@@H](C)C(=O)N1C | 6.9
CCCN1CC(=O)N(C)[C@H](CC(C)C)C(=O)N[C@@H](CC(C)C)C(=O)N2CCC[C@H]2C(=O)N(C)[C@H](CC(C)C)C(=O)N[C@@H](Cc2ccccc2)C1=O | 15
CCCN1CC(=O)N[C@H](CC(C)C)C(=O)N[C@@H](CC(C)C)C(=O)N2CCC[C@@H]2C(=O)N(Cc2ccccc2)CC(=O)N[C@@H](Cc2ccccc2)C(=O)N2CCC[C@H]2C1=O | 3
CC(C)C[C@H]1C(=O)N(C)[C@@H](CC(C)C)C(=O)N2CCC[C@H]2C(=O)N(C)[C@@H](CC(C)C)C(=O)N[C@@H](Cc2ccccc2)C(=O)N2CCC[C@@H]2C(=O)N(C)[C@@H](C)C(=O)N1C | 13
CCCN1CC(=O)N[C@@H](CC(C)C)C(=O)N(C)[C@@H](CC(C)C)C(=O)N2CCC[C@@H]2C(=O)N[C@H](CC(C)C)C(=O)N[C@@H](Cc2ccccc2)C(=O)N2CCC[C@@H]2C1=O | 3.1
CC(C)C[C@@H]1C(=O)N(C)[C@@H](CC(C)C)C(=O)N2CCC[C@H]2C(=O)N(C)[C@H](CC(C)C)C(=O)N[C@@H](Cc2ccccc2)C(=O)N2CCC[C@@H]2C(=O)N[C@@H](Cc2ccccc2)CC(=O)N1C | 4.2
CC(C)C[C@H]1NC(=O)[C@@H]2CCCN2C(=O)CN(Cc2ccccc2)C(=O)[C@H](CC(C)C)N(C)C(=O)[C@@H](C)N(C)C(=O)[C@@H]2CCCN2C(=O)[C@H](Cc2ccccc2)NC1=O | 0.35
CC(C)C[C@@H]1C(=O)N(C)[C@@H](CC(C)C)C(=O)N2CCC[C@H]2C(=O)N(C)[C@@H](CC(C)C)C(=O)N[C@@H](Cc2ccccc2)C(=O)N2CCC[C@@H]2C(=O)N[C@H](C)C(=O)N1C | 5
CC(C)C[C@@H]1NC(=O)[C@@H]2CCCN2C(=O)C[C@H](Cc2ccccc2)NC(=O)[C@@H](CC(C)C)N(C)C(=O)[C@@H](C)NC(=O)[C@H](Cc2ccccc2)NC1=O | 1.2
CC(C)C[C@@H]1NC(=O)C[C@H](Cc2ccccc2)NC(=O)[C@@H]2CCCN2C(=O)[C@H](Cc2ccccc2)NC(=O)[C@@H](CC(C)C)N(C)C(=O)[C@@H]2CCCN2C(=O)[C@@H](CC(C)C)N(C)C1=O | 3.5
CC(C)C[C@@H]1NC(=O)[C@@H](CC(C)C)N(C)C(=O)[C@@H](C)N(C)C(=O)[C@H](Cc2ccccc2)NC(=O)CN(Cc2ccccc2)C(=O)[C@@H]2CCCN2C1=O | 19
CCCN1CC(=O)N[C@H](CC(C)C)C(=O)N[C@H](CC(C)C)C(=O)N2CCC[C@H]2C(=O)N(Cc2ccccc2)CC(=O)N[C@@H](Cc2ccccc2)C(=O)N2CCC[C@@H]2C1=O | 1
CC(C)C[C@@H]1NC(=O)[C@@H](CC(C)C)NC(=O)[C@H](C)NC(=O)[C@H](Cc2ccccc2)NC(=O)CN(Cc2ccccc2)C(=O)[C@@H]2CCCN2C1=O | 1.6
CC(C)C[C@@H]1NC(=O)[C@H](C)NC(=O)[C@@H]2CCCN2C(=O)[C@H](Cc2ccccc2)NC(=O)[C@H](CC(C)C)N(C)C(=O)[C@H]2CCCN2C(=O)[C@H](CC(C)C)N(C)C1=O | 0.59
CCCN1CC(=O)N[C@H](CC(C)C)C(=O)N[C@@H](CC(C)C)C(=O)N2CCC[C@H]2C(=O)N[C@@H](CC(C)C)C(=O)N[C@@H](Cc2ccccc2)C(=O)N2CCC[C@H]2C1=O | 0.4
CC(C)C[C@H]1C(=O)N(C)[C@@H](CC(C)C)C(=O)N2CCC[C@@H]2C(=O)N(C)[C@@H](CC(C)C)C(=O)N[C@@H](Cc2ccccc2)C(=O)N2CCC[C@@H]2C(=O)N[C@@H](Cc2ccccc2)CC(=O)N1C | 5.5
CCCN1CC(=O)N[C@@H](CC(C)C)C(=O)N[C@@H](CC(C)C)C(=O)N2CCC[C@@H]2C(=O)N(C)[C@@H](CC(C)C)C(=O)N[C@@H](Cc2ccccc2)C(=O)N2CCC[C@H]2C1=O | 2
CCCN1CC(=O)N[C@H](CC(C)C)C(=O)N[C@@H](CC(C)C)C(=O)N2CCC[C@@H]2C(=O)N(C)[C@@H](CC(C)C)C(=O)N[C@@H](Cc2ccccc2)C1=O | 16
CC(C)C[C@@H]1C(=O)N2CCC[C@H]2C(=O)N(C)[C@@H](CC(C)C)C(=O)N[C@@H](Cc2ccccc2)C(=O)N2CCC[C@H]2C(=O)N(C)[C@H](C)C(=O)N(C)[C@@H](CC(C)C)C(=O)N1C | 5.6
CC(C)C[C@@H]1NC(=O)[C@@H](CC(C)C)NC(=O)[C@H](C)NC(=O)[C@@H]2CCCN2C(=O)[C@H](Cc2ccccc2)NC(=O)[C@@H](CC(C)C)NC(=O)[C@@H]2CCCN2C1=O | 0.66

Excerpt, the opening 2 entries:

structure (SMILES) | PAMPA (10^-6 cm/s)
CCCN1CC(=O)N(C)[C@@H](CC(C)C)C(=O)N(Cc2ccccc2)CC(=O)N2CCC[C@@H]2C(=O)N(C)[C@@H](CC(C)C)C(=O)N[C@@H](Cc2ccccc2)C(=O)N2CCC[C@H]2C1=O | 6.2
CC(C)C[C@@H]1NC(=O)[C@H](CC(C)C)N(C)C(=O)[C@H](C)NC(=O)[C@H](Cc2ccccc2)NC(=O)[C@@H](CC(C)C)NC(=O)[C@@H]2CCCN2C1=O | 0.76